Yeast mating assay 1: variants of the scFv Ab-14

Data: MIT Lincoln Laboratory AlphaSeq set, Engelhart et al. 2022, doi:10.1038/s41597-022-01779-4, as distributed in FLAb.

Binding partner: SARS-CoV-2 spike HR2 peptide, sequence PDVDLGDISGINAS.

Each scFv is VH, a (GGGGS)3 linker, VL, as in the parent Ab-14, and differs from it in the CDRs of the light chain only.
VH: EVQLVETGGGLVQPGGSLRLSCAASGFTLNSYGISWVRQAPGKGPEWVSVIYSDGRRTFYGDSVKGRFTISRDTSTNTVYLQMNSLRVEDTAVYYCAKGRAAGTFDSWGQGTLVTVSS
VL: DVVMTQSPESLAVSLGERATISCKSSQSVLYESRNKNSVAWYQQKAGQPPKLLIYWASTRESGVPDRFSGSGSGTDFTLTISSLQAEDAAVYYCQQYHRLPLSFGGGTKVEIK

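The library (AAYL50) carries one to three amino acid substitutions per variant, with no insertions or deletions. The scFvs were displayed on barcoded MATa yeast, the peptide on MATalpha yeast. Mating (16 h, 30 °C) was followed by selection of diploids and sequencing of their barcodes. A regression on co-assayed BCL2-family reference pairs converts the normalised counts of each replicate to an apparent Kd. Mating was done three times.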

Substitutions are numbered in sequence along the VL above, starting at 1 (not Kabat).
Scale: log10 of Kd in nM, estimated from mating counts; low values are strong binders.
A pair that was not seen in that replicate is written "n.d."; this usually means weak binding, but a binder can also be missed.

changes | replicates, log10 nM | empty controls
E32C K36N Y97F | 3.27 / 2.68 / 5.24 | 1/9 (4.24)
Y31F S38N S62M | 1.07 / 1.07 / 1.21 | 1/9 (4.02)
K24N K36H L100F | 2.57 / n.d. / 2.70 | 0/9
W56F S62P R99A | 1.00 / 0.86 / 0.91 | 0/9
Q27D S38Q L102K | 4.02 / 3.04 / 3.40 | 2/9 (3.68)
S28D L30G S62K | 0.70 / 0.84 / 0.74 | 4/9 (4.70)
N35D A57P | n.d. / 4.28 / 3.99 | 1/9 (4.38)
S26Q V39S Q96C | n.d. / 3.07 / 4.51 | 3/9 (4.02)
S26F Y31P N35H | 1.40 / 1.52 / 1.71 | 1/9 (3.90)
Y31T S58L P101V | 1.71 / 1.75 / 1.63 | 2/9 (4.45)
S25N Q27H E61T | 4.56 / n.d. / 3.43 | 2/9 (4.97)
Y31D R60D Q96F | n.d. / n.d. / n.d. | 3/9 (4.08)
S33F K36C Q95P | n.d. / n.d. / n.d. | 0/9
K24T S26P | 3.13 / 2.49 / 2.70 | 0/9
L30I Y31F W56Y | -0.18 / 0.36 / 0.19 | 0/9
P101L L102H | 2.42 / 1.88 / 2.61 | 4/9 (3.41)
V39P S62H Q96H | 3.71 / 4.01 / n.d. | 1/9 (4.40)
S28D E32H R34G | 3.72 / 1.70 / 1.36 | 0/9
N37D A57F T59H | n.d. / n.d. / n.d. | 0/9
V29N E32C S38P | n.d. / n.d. / n.d. | 1/9 (3.93)
K24L N35S V39T | n.d. / 3.89 / n.d. | 1/9 (4.52)
E32R R34D E61I | 1.59 / 1.41 / 1.50 | 2/9 (3.78)
Q27M Q96F Y97H | 0.59 / 0.90 / 0.81 | 1/9 (2.90)
K24V Y31T L100C | 1.50 / 1.18 / 1.33 | 2/9 (4.37)
N35R K36Q Q96S | 0.63 / 1.05 / 0.62 | 4/9 (4.38)
S28G R34Y V39M | 2.56 / 2.02 / 2.10 | 5/9 (4.82)
S33G A57C S103D | 2.59 / 1.95 / 2.65 | 7/9 (4.46)
Q27E L30T L100W | 3.28 / 2.69 / n.d. | 3/9 (3.40)
A57F E61W Q95E | 3.68 / 3.16 / n.d. | 0/9
S33E N35I | n.d. / n.d. / n.d. | 0/9
K24V S33V S62F | n.d. / n.d. / n.d. | 0/9
S26R S33A A40C | 5.64 / 5.96 / 5.14 | 7/9 (4.91)
N37E W56D R99D | 0.72 / 0.80 / 0.79 | 0/9
K24T L30Y R34T | 0.17 / 0.66 / 0.93 | 0/9
K36C A40D R99H | n.d. / n.d. / n.d. | 0/9
L30W Q95I L100C | n.d. / n.d. / n.d. | 0/9

For reference, 5 entries of the list once more:

changes,"replicates, log10 nM",empty controls
L30I Y31F W56Y,-0.18 / 0.36 / 0.19,0/9
K36C A40D R99H,n.d. / n.d. / n.d.,0/9
Y31D R60D Q96F,n.d. / n.d. / n.d.,3/9 (4.08)
S33G A57C S103D,2.59 / 1.95 / 2.65,7/9 (4.46)
K24V S33V S62F,n.d. / n.d. / n.d.,0/9

Background: pairings of library AAYL50 with three empty control strains gave a value in 18% of cases (median 4.19, 5th percentile 2.99). Values in that range, when seen in few replicates, are hard to tell from nonspecific mating. Also given: how often the same scFv was detected with the empty control strains, with their mean in brackets.